## Measured affinities in a library of Ab-14 heavy chain variants

Reference: Engelhart et al. 2022, doi:10.1038/s41597-022-01779-4. File: FLAb, binding data.

Antigen: PDVDLGDISGINAS, a 14-residue peptide of the SARS-CoV-2 spike HR2 region.

Each scFv is VH, the linker GGGGSGGGGSGGGGS, VL, as in the parent Ab-14, and differs from it in the CDRs of the heavy chain only.
VH: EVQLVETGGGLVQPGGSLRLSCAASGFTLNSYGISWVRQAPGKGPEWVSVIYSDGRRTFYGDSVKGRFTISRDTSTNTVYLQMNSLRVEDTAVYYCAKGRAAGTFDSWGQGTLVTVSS
VL: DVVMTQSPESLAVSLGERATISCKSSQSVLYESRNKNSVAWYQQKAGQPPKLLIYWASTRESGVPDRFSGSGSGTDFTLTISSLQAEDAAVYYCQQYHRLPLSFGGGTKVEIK

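Variants in AAYL49 differ from the parent at up to three CDR positions; double and triple changes were sampled at random. The scFvs were displayed on barcoded MATa yeast, the peptide on MATalpha yeast. The frequency of each diploid, read from paired DNA barcodes, reflects how well the two displayed proteins bind. Each replicate has its own calibration line, from reference interactions of the BCL2 family. Each pool was mated in three replicate cultures.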

Variants are written as CDR1, CDR2 and CDR3 of the heavy chain (limits as in the source). Parent: GFTLNSYGIS, VIYSDGRRTFYGDSVK, GRAAGTFDS. Values are log10 of the apparent Kd in nM; lower means stronger binding. A mean of the replicates is given; it leaves out those without a signal. "nd" marks a missing value. The strain was present, yet no cells mated with the target were sequenced in any replicate, which points to weak or no binding.

| # | CDR-H1 | CDR-H2 | CDR-H3 | log10 Kd (nM), mean | replicates with signal |
|---|---|---|---|---|---|
| 1 | GFTLSSYGAS | VIYSDGRRTFYGDSVK | GRAAGTFDC | nd | 0/3 |
| 2 | GFTLNSYGIS | VIYSDGRRTFCGWSVK | GRAADTFDS | 2.59 | 1/3 |
| 3 | GFTLNSYEIS | VIYSYGRRTFYGDSVK | GRAAGTFDS | nd | 0/3 |
| 4 | GFTLNSYGIS | VIYSGGRRTFPGDSVK | GRAAGTFDS | 2.87 | 1/3 |
| 5 | GFTLNSYGIS | VIYLDGRRTFYGDSVK | GNAADTFDS | nd | 0/3 |
| 6 | GFTLCSYQIS | VIYSDGRRTFYGDQVK | GRAAGTFDS | nd | 0/3 |
| 7 | GFTLNSYGIS | KIYSDGRRTFYGDNVK | GRAAGTWDS | nd | 0/3 |
| 8 | GFTLNSYGIS | VIYSDGRRTCNGDSVK | GRAAGTFDS | nd | 0/3 |
| 9 | GFTLYFYGIS | VIYSDGRRTFDGDSVK | GRAAGTFDS | nd | 0/3 |
| 10 | GFTLNSYGIS | VIGSDGRATFYGDSVK | GHAAGTFDS | nd | 0/3 |
| 11 | GFTLNSYGIS | VLYSDQRRTFYGDSVK | GWAAGTFDS | 4.79 | 1/3 |
| 12 | GFTINSYGIS | VIYSEGRRTFYGDSVK | GRAAGTFDD | nd | 0/3 |
| 13 | GFTLNNYGTS | VIYSDGRRTFYGDSVK | CRAAGTFDS | 4.26 | 1/3 |
| 14 | GFTLNSYFIS | VIQSDGCRTFYGDSVK | GRAAGTFDS | nd | 0/3 |
| 15 | GFTLNPYGIP | VIYSDGRRTFYGDSVK | GRAAGEFDS | 4.53 | 1/3 |
| 16 | GSTLNSYEIS | VIYSDGRRTFYGDSVK | GRAAGTGDS | 2.62 | 1/3 |
| 17 | GFTLNSYGIG | VIYSDGRRTFYGDHVK | GRAAGVFDS | 4.40 | 2/3 |
| 18 | GFTLNSYGIS | VSYFDGRRTFYGDSVK | GRAAGTFDS | nd | 0/3 |
| 19 | GFTHNSCGIS | VIYSDGRETFYGDSVK | GRAAGTFDS | nd | 0/3 |
| 20 | GFTLNSYGIS | VINSDGRTTFYGDSVK | GCAAGTFDS | 4.07 | 1/3 |
| 21 | GFTLNSYHIS | VSYSDGRRTFYGDSVK | GQAAGTFDS | 4.24 | 2/3 |
| 22 | GFTLNSVGIS | VIYSDGRRTFNGDSVK | GRAAGTFDS | 3.26 | 1/3 |
| 23 | GFTANKYGIS | VIYSDGRRTFYGDSQK | GRAAGTFDS | nd | 0/3 |
| 24 | RFTLNSYGIS | VIYSDARRTFYGDSVK | GRAAGTFDS | nd | 0/3 |
| 25 | GFTLLSYGIS | VIYSDGRRTFYKDSVK | GRAAGTFDT | nd | 0/3 |
| 26 | GFTLNSYGIS | VIYSDGRRTFYGASVK | GRAAVTFTS | 2.14 | 3/3 |
| 27 | GFTLNSYGIS | WIYSDGRATFYGDSVK | GRAAGCFDS | 4.70 | 3/3 |
| 28 | GTTLNSYNIS | VIYSDGRRTFYNDSVK | GRAAGTFDS | nd | 0/3 |
| 29 | GVTLNSNGIS | VIYSDGRRTFYGDSVP | GRAAGTFDS | 3.84 | 2/3 |
| 30 | SFTLNSYGIS | VIYSDGRRTFYGDIVK | GRAAGTFDS | 1.60 | 3/3 |
| 31 | GFRLNSYGIS | VIYSDGRRTYYRDSVK | GRAAGTFDS | 3.80 | 3/3 |
| 32 | GFTLNSYGIY | VIYSDGRRTFYGDSVK | GRAAYTFDS | nd | 0/3 |
| 33 | GFTLISYGIS | VIYSDGRRTFYGDSVK | GRAAGRFDS | 3.52 | 1/3 |
| 34 | GFTLNSYGIS | VIYSDGRRTFYGDSVK | GCAAGTFDD | 1.47 | 3/3 |
| 35 | GFTLNSYIIS | VIYRDGRRTFYGDSVK | GRAAGTFDS | nd | 0/3 |
| 36 | GFTLNSYGIS | VIYKDGRRTFYGDSVK | GRAEGTFMS | 4.85 | 2/3 |
| 37 | GYTLNRYGIS | VIYSDGRRTFYGDLVK | GRAAGTFDS | nd | 0/3 |
| 38 | IFTLNIYGIS | VIYSDGRRTFYGDSVK | GRAAGTFDT | 2.98 | 3/3 |
| 39 | KATLLSYGIS | VIYSDGRRTFYGDSVK | GRAAGTFDS | 2.26 | 1/3 |
| 40 | GFTLFAYGIS | VIYSDGRRTFYGDFVK | GRAAGTFDS | 2.99 | 1/3 |
| 41 | GFTLNSYGIS | VIYSDGRRTFYPDSLK | GRAAETFDS | 2.41 | 1/3 |
| 42 | CFTPNSYGIS | KIYSDGRRTFYGDSVK | GRAAGTFDS | nd | 0/3 |
| 43 | GFTLNSYGIS | VIYRDGRRTCYGDGVK | GRAAGTFDS | nd | 0/3 |
| 44 | GFTLNSYGIS | AIYSDGRRTFYGDSVK | GAAAGTFDS | 4.02 | 3/3 |
| 45 | GFTWNSYGIS | VIHSDGRRTFYGDSVK | GRAACTFDS | nd | 0/3 |
| 46 | GGTLNSYHIS | VIYSDGRRTFYGDSVK | GIAAGTFDS | 3.70 | 1/3 |
| 47 | GFTLNSYGIS | VIYDDGRRTFYGTSFK | GRAAGTFDS | nd | 0/3 |
| 48 | GFTVNSYGIS | VIYSDGRRSFYGDSVK | GRAAGSFDS | 3.80 | 3/3 |
| 49 | GFTLNSYGIS | VIYSDGARTFYWDSVK | GRAAGTFDS | 5.17 | 1/3 |
| 50 | GFTLNSMGIS | VIYSDGHRTFYGDSVH | GRAAGTFDS | 4.17 | 2/3 |
| 51 | GFTTNSYGIS | VIYSDGRRKFKGDSVK | GRAAGTFDS | nd | 0/3 |
| 52 | GFTLHSYGIS | VIYVKGRRTFYGDSVK | GRAAGTFDS | 4.01 | 1/3 |
| 53 | GNTLNSYGIS | VIYSDGRRKFYGDSVK | IRAAGTFDS | 3.18 | 1/3 |
| 54 | GFTLNSYGIS | VIYQDGRRTFYGDSVS | HRAAGTFDS | nd | 0/3 |
| 55 | GFTLNSYGIS | VIYSDGRRTFYGASVK | GRATGTFDM | 4.29 | 1/3 |
| 56 | GFTLNSYGSS | VIYSDGRRYFYGDSVK | GRAAGTFDS | nd | 0/3 |
| 57 | GFTLNSAVIS | VIYSDGRRTTYGDSVK | GRAAGTFDS | nd | 0/3 |
| 58 | GFTLNSYGIN | VIYSVGRRTFYGDSVM | GRAAGTFDS | nd | 0/3 |
| 59 | ACTLNSYGIS | VIYSDMRRTFYGDSVK | GRAAGTFDS | nd | 0/3 |
| 60 | GFTLNGYGIS | TIYSDGRRTFYGDSVK | QRAAGTFDS | nd | 0/3 |
| 61 | GFTLNCHGIS | VTYSDGRRTFYGDSVK | GRAAGTFDS | nd | 0/3 |
| 62 | GFTFNSYGIS | VYYSDGRRTFYGDSVK | GRAAGTFDS | nd | 0/3 |
| 63 | GFWLNSYGRS | VIYSDGRRTLYGDSVK | GRAAGTFDS | 3.77 | 1/3 |

Top 7 of the variants detected in all replicates, tightest first:

CDR-H1,CDR-H2,CDR-H3,"log10 Kd (nM), mean",replicates with signal
GFTLNSYGIS,VIYSDGRRTFYGDSVK,GCAAGTFDD,1.47,3/3
SFTLNSYGIS,VIYSDGRRTFYGDIVK,GRAAGTFDS,1.60,3/3
GFTLNSYGIS,VIYSDGRRTFYGASVK,GRAAVTFTS,2.14,3/3
IFTLNIYGIS,VIYSDGRRTFYGDSVK,GRAAGTFDT,2.98,3/3
GFTVNSYGIS,VIYSDGRRSFYGDSVK,GRAAGSFDS,3.80,3/3
GFRLNSYGIS,VIYSDGRRTYYRDSVK,GRAAGTFDS,3.80,3/3
GFTLNSYGIS,AIYSDGRRTFYGDSVK,GAAAGTFDS,4.02,3/3

Nonspecific signal, from three strains lacking the peptide, appeared in 15% of pairings of library AAYL49, centred on 4.06 (5% of these signals below 2.83); values are not corrected for it. In this assay the parent's reference entry averaged 0.65; its copy inside this library read 4.11 (one replicate of three).